Key:
[1] = tested on: CAL33 cells; details: Rebucci M et al. 2011, read-out: IC50 of cetuximab; cited from earlier work
[2] = tested on: CAL27 cells; assay: Clonal growth of shC and sh2 CAL27 cells; assay type: cell-based, human; details: sh2 CAL 27 cells; FIG. 9
Procedure: (§1) Statistical analysis was carried out using a t test. […] The concentration of erlotinib/Tarceva which reduces tumor cell growth, was assessed by using the 3-[4,5-dimethylthiazol-2yl]-diphenyltetrazolium bromide (MTT) colorimetric assay (Sigma, Lyon, France) according to the manufacturer's instructions.

[3] = tested on: CAL33 cells; assay: Clonogenicity assay (clonal growth) of shC, sh1 and sh2 CAL33 cells; assay type: cell-based, human; details: cetuximab 6 nmol/L, FIG. 7
Procedure: as §1

Substance: cetuximab
- IC50 [1]: 0.03 µM
- effect of TRF2 knock-down on efficacy of the drug (clonal growth) [2]: increased the efficacy
- inhibition of clonal growth ([3]; sh1 CAL33 cells (TRF2 knock-down)): 60%
- inhibition of clonal growth ([3]; sh2 CAL33 cells (TRF2 knock-down)): 60%

Reference: patent publication US20180209979A1, “METHOD FOR INDIVIDUALIZED CANCER THERAPY” (INSERM (INSTITUT NATIONAL DE LA SANTE ET DE LA RECHERCHE), priority 2015, published 2018)
